Test results taken from US20090143761A1, “AGENT DELIVERY SYSTEM AND USES OF SAME” (T[…] COMPANY, LLC, priority 2005, published 2009).

O=C([O-])[O-].[Li+].[Li+] [lithium, lithium carbonate]
passive delivery of lithium without iontophoresis (control, electrodes present but no current passed): no passive delivery
effect of current on amount of lithium delivered (two current dosages, EpiDerm, 37 C): A two-fold increase in current caused an equivalent increase in the amount of lithium delivered
